Results from PubChem BioAssay (Tox21).
“And” between values parts separate entries of the source, which are not always exact repeats. Equal values may be shown once. The list shows a part of the results, in another mix than the full data. Results filed as inconclusive are left out. More than one record can exist for a structure, and the calls need not agree. The source made the active and inactive calls. Unless noted, the call rests on the fitted dose curve; in most records, active means well fitted curve in the direction sought with a large enough effect in the repeat runs; inconclusive means weak or mixed curves; inactive means no such curve, though single readings can be large; an effect the other way counts as inactive or inconclusive.

The chains behind the UniProt entries cited, without tags or fusion partners.
UniProt P16473, whole entry: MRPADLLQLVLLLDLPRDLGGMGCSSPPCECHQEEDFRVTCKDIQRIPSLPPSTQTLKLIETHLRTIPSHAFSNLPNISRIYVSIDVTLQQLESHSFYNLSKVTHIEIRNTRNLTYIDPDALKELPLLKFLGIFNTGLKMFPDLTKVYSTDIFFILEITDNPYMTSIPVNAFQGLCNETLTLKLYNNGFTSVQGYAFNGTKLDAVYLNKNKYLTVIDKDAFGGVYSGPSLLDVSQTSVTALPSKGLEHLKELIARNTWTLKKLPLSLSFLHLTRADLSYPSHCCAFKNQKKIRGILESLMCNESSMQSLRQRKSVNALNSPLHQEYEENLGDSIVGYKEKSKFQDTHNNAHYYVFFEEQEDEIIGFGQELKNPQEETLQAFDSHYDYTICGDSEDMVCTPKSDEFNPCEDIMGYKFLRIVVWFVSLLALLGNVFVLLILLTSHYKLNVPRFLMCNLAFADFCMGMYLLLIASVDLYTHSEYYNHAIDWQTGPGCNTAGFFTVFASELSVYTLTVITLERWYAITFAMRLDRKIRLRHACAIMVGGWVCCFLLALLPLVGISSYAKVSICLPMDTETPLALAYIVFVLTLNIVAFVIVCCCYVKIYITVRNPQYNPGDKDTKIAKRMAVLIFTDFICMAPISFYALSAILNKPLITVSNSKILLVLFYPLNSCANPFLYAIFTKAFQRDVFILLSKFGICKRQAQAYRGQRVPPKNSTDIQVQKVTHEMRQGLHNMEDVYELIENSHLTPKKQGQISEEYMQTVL
UniProt P34981, whole entry: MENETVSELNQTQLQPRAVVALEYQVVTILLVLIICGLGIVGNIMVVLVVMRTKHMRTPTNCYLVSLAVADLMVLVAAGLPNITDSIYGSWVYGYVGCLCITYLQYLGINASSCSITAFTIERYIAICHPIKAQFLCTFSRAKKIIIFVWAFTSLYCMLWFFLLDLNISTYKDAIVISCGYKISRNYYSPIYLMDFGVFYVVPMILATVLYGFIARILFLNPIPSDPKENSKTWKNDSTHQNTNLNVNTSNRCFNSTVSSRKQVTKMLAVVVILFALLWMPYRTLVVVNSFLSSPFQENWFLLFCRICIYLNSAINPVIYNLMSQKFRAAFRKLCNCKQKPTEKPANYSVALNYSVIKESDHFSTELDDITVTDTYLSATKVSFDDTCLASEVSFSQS
UniProt Q12809, whole entry: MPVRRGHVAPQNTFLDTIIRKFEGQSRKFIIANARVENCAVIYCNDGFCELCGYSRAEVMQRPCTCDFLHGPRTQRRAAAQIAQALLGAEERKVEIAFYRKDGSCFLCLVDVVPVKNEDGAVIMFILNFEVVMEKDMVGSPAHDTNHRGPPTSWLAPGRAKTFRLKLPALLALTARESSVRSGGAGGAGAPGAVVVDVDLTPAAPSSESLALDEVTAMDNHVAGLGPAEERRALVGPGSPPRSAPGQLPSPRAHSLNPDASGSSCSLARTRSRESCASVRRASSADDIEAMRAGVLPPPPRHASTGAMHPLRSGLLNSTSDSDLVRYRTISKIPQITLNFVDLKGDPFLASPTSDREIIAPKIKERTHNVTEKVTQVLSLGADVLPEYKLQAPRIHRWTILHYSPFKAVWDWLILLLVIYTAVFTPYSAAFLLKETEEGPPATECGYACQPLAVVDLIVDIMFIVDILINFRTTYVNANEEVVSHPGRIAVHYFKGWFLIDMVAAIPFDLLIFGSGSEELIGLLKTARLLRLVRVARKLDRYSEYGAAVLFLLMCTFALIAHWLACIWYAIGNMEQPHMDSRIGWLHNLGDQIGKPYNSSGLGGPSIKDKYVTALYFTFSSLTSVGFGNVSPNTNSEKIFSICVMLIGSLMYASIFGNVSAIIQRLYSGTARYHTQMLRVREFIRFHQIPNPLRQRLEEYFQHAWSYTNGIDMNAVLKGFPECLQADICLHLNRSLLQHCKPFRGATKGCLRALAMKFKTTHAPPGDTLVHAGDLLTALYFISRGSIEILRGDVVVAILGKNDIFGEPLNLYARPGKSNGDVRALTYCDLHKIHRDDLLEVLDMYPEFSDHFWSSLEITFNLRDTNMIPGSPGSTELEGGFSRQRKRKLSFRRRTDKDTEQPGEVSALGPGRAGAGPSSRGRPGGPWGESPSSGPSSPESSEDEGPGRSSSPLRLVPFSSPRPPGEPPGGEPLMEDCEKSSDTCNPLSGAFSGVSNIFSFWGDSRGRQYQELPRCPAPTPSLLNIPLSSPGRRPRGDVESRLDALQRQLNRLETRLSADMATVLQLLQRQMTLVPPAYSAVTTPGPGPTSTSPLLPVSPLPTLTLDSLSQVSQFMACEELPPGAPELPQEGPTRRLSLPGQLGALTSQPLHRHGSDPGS
UniProt P08684, whole entry: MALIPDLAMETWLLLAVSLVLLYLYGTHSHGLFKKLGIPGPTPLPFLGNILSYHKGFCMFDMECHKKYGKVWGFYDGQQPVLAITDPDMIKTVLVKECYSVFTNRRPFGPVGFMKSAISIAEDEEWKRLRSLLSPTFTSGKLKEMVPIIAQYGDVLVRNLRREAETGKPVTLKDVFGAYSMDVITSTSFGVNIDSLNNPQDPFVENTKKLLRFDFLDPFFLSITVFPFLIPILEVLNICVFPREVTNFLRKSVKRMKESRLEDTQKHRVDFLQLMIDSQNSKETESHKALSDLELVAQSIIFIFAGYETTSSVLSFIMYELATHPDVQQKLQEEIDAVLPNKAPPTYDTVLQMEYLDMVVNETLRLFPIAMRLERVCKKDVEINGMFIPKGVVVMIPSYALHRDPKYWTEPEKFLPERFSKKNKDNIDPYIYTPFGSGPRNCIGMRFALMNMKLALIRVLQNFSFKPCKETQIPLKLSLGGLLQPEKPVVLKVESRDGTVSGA
UniProt P03372, whole entry: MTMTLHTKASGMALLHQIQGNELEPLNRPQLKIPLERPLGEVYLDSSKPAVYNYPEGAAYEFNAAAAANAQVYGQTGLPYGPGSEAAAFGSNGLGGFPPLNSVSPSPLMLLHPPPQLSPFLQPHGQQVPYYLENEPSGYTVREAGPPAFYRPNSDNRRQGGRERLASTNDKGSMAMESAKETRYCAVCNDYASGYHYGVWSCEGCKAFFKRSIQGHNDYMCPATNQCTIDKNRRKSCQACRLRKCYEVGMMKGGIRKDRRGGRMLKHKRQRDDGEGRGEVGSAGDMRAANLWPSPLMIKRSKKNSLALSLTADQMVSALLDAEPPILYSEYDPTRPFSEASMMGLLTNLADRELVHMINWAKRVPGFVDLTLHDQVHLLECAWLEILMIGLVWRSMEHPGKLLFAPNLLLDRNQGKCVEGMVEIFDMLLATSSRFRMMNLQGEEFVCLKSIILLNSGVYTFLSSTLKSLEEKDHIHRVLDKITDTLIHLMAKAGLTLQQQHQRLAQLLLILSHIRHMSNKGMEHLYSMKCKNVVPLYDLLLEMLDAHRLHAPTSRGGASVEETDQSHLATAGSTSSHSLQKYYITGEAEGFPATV
UniProt P06401, whole entry: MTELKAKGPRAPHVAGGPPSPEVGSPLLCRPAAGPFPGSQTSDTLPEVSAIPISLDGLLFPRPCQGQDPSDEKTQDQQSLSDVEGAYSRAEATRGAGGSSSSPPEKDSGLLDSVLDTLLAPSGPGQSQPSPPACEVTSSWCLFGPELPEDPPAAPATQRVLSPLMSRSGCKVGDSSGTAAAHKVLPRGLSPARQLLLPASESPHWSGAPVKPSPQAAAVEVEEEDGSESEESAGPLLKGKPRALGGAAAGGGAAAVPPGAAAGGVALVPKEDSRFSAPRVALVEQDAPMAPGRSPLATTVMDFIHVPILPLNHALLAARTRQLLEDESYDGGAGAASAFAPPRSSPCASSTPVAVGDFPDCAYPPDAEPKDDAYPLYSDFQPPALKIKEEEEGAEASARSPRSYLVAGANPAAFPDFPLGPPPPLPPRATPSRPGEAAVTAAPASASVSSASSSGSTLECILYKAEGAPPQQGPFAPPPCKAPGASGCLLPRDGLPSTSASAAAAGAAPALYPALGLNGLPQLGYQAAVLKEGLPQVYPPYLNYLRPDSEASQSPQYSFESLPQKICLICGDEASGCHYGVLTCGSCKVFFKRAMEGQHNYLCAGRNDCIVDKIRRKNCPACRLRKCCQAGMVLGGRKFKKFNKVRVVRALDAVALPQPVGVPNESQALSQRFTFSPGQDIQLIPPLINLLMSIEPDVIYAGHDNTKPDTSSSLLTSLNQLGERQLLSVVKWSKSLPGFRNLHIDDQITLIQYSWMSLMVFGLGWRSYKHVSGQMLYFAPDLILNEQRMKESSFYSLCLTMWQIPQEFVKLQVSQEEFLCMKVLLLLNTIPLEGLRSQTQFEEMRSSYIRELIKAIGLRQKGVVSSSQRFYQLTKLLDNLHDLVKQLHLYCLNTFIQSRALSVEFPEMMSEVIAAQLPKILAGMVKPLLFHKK
UniProt P05177, whole entry: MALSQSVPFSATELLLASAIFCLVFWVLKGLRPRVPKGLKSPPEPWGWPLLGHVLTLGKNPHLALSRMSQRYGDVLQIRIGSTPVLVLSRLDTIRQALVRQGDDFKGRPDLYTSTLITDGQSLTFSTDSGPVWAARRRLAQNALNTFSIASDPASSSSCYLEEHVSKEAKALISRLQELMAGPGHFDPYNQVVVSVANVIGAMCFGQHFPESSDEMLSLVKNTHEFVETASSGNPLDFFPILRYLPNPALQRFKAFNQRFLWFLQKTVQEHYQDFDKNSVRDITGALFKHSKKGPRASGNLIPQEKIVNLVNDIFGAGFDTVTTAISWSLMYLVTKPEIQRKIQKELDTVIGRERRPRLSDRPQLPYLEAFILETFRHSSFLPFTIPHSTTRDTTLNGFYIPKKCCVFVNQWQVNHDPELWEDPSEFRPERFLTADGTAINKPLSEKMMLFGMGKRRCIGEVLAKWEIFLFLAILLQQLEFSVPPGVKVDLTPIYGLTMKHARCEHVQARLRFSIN

What was measured:
[1] = qHTS assay to identify small molecule agonists or antagonists of the thyroid stimulating hormone receptor (TSHR) signaling pathway - wild type cell line counter screen (AID 1259384; calls by dose curve); conditions: HEK293 wild type, cAMP HTRF counter-screen, stronger effect = higher value; at 92.4 µM (top of the series) unless noted
Summary of the method: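 Wild-type Hek293 cells, 800/well, 18 h at 37C, then compound with Ro20-1724 for 30 min RT. cAMP by HTRF (cAMP-d2/anti-cAMP cryptate), 1 h RT, fluorescence read. 15 concentrations, triplicates.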

[2] = target: Thyrotropin receptor (Homo sapiens) (UniProt P16473); experiment: qHTS assay to identify small molecule antagonists of the thyroid stimulating hormone receptor (TSHR) signaling pathway (AID 1259385; calls by dose curve; further: nearly all actives have a fitted effect of over 20% in size); conditions: TSHR-HEK293 cAMP HTRF, TSH-stimulated antagonist mode
[3] = qHTS assay to identify small molecule antagonists of the progesterone receptor (PR) signaling pathway - cell viability counter screen (AID 1346798); conditions: PR-UAS-bla HEK293T viability, CellTiter-Glo luminescence, 16 h; further: nearly all actives have a fitted effect of over 50% in size
Summary of the method: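 Cytotoxicity read as CellTiter-Glo luminescence (30 min, room temperature) in the same wells as the beta-lactamase readout. HEK293T PR-UAS-bla cells in charcoal-stripped 2% FBS received compound and R5020, then 16 h at 37C, 5% CO2.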

[4] = qHTS assay to identify small molecule agonists of the TGF-beta/Smad signaling pathway - cell viability counter screen (AID 1346829); conditions: SBE-bla HEK293T viability, CellTiter-Glo luminescence, 5 h; at 76.8 µM (top of the series) unless noted; further: top concentration of the series differs between compounds; nearly all actives have a fitted effect of over 45% in size
Summary of the method: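 Same-well cytotoxicity: CellTiter-Glo added after the 2 hr room-temperature beta-lactamase substrate step, luminescence measured 30 min later; cells had 5 hr of compound at 37 C.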

[5] = target: Thyrotropin-releasing hormone receptor (Homo sapiens) (UniProt P34981); experiment: qHTS assay to identify small molecule antagonists of the thyrotropin-releasing hormone receptor (TRHR) signaling pathway (AID 1346877; active means well fitted inhibition curve with a large enough effect in the repeat runs, not every such curve was filed as active; further: potency means the concentration at half of the fitted maximal effect)
[6] = target: Thyrotropin-releasing hormone receptor (Homo sapiens) (UniProt P34981); experiment: qHTS assay to identify small molecule agonists of the thyrotropin-releasing hormone receptor (TRHR) signaling pathway (AID 1346891; calls by dose curve;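 further: HEK293 cells expressing TRHR with calcium dye readout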); conditions: TRHR-HEK293 calcium fluorescence, agonist mode
[7] = Caspase-3/7 induction in HepG2 cells by small molecules, qHTS assay (AID 1346978); conditions: HepG2 caspase-3/7 activation, Caspase-Glo luminescence, 17 h; at 92.4 µM (top of the series) unless noted; further: nearly all actives have a fitted effect of over 15% in size
Summary of the method: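 Wild-type HepG2 cells, 2,000/well, settled 5 hr at 37 C and 5% CO2, then compound-treated for 17 hr; caspase-3/7 activity read by luminescent Caspase-Glo 3/7 after 30 min at room temperature.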

[8] = Caspase-3/7 induction in CHO-K1 cells by small molecules, qHTS assay (AID 1346980); further: nearly all actives have a fitted effect of over 15% in size
Summary of the method: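 Wild-type CHO-K1 cells exposed to compounds for 17hr at 37 C, 5% CO2. Caspase-3/7 activity then measured by Caspase-Glo 3/7 luminescence after 30min at room temperature.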

[9] = target: Voltage-gated inwardly rectifying potassium channel KCNH2 (Homo sapiens) (UniProt Q12809); experiment: Human Ether-a-go-go-Related Gene (hERG) channel small molecule antagonists: fluorescence cell-based qHTS assay (AID 1671200); further: nearly all actives have a fitted effect of over 50% in size
Summary of the method: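 Thallium flux as potassium surrogate: FluxOR II dye loaded 1 h at room temperature into hERG-expressing U2OS cells, then stimulus buffer added after 10 min. Kinetic 480 nm excitation/540 nm emission read, 2 min.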

[10] = target: Cytochrome P450 3A4 (Homo sapiens) (UniProt P08684); experiment: Cytochrome P450 Family 3 Subfamily A Member 4 (CYP3A4) small molecule antagonists: luciferase reporter qHTS assay (AID 1671201); further: nearly all actives have a fitted effect of over 50% in size
Summary of the method: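 Recombinant human CYP3A4 converts a proluciferin substrate to luciferin over 1 h at room temperature after NADPH regeneration solution is added (compound preincubated 10 min); detection reagent stops reaction, luminescence read 20 min later as relative units.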

[11] = qHTS assay to identify small molecule antagonists of the estrogen receptor beta (ER-beta) signaling pathway - cell viability counter screen (AID 1259382); conditions: ER-beta-UAS-bla HEK293T viability, CellTiter-Glo luminescence, 16 h; at 92.4 µM (top of the series) unless noted;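 further: HEK293T cells carrying ER-beta-UAS-bla reporter stimulated with estradiol; nearly all actives have a fitted effect of over 55% in size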
Summary of the method: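 In this multiplexed counter screen, cells were seeded at 2,000 per well in medium with 2% charcoal-stripped FBS and incubated 6 hr before compound and 1nM final E2 were added. Sixteen hours later, ATP-based luminescence reported viability.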

[12] = target: Estrogen receptor (Homo sapiens) (UniProt P03372); experiment: qHTS assay to identify small molecule agonists of the estrogen receptor alpha (ER-alpha) signaling pathway in the presence of an antagonist (AID 1259383; calls by dose curve; further: top concentration of the series differs between compounds; nearly all actives have a fitted effect of over 15% in size); conditions: VM7Luc4E2 cells, ERE-luciferase, +ICI-182,780, 22 h; at 92.4 µM (top of the series) unless noted
[13] = qHTS assay to identify small molecule agonists of the estrogen receptor alpha (ER-alpha) signaling pathway in the presence of an antagonist - cell viability counter screen (AID 1259386); conditions: VM7Luc4E2 viability, CellTiter-Fluor fluorescence, 22 h; at 92.4 µM (top of the series);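 further: cells exposed to compounds for 22 h at 37 °C before the viability read; nearly all actives have a fitted effect of over 30% in size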
Summary of the method: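 Viability counter screen using VM7Luc4E2 (full-length ER-alpha, four ERE-luciferase). The cells were treated with compounds alongside ICI-182,780 10.0nM for 22hr, and live-cell protease fluorescence was quantified with CellTiter-Fluor.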

[14] = target: Progesterone receptor (Homo sapiens) (UniProt P06401); experiment: qHTS assay to identify small molecule antagonists of the progesterone receptor (PR) signaling pathway (AID 1346795; active means well fitted inhibition curve with a large enough effect in the signal ratio in the repeat runs, not every such curve was filed as active; the % refers to the signal ratio)
Summary of the method: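 Antagonist mode with agonist R5020 at 1 nM final and 16 hr incubation at 37C. Reporter was beta-lactamase driven by UAS in HEK293T (PR-UAS-bla), 2% charcoal-stripped serum; signal from LiveBLAzer FRET substrate, 2 hr at room temperature.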

[15] = Human pregnane X receptor (PXR) small molecule agonists, qHTS cell viability counter screen (AID 1346977); further: nearly all actives have a fitted effect of over 50% in size
Summary of the method: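 Same-well viability read: CellTiter-Fluor added after 23 hr compound exposure, fluorescence measured 1 hr later. Cells were PXR-Luc HepG2 seeded at 2,000/well in 5% charcoal-stripped FBS medium, rested 5 hr before dosing at 37 C.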

[16] = Caspase-3/7 induction in CHO-K1 cells by small molecules, qHTS cell viability counter screen (AID 1346979); further: nearly all actives have a fitted effect of over 35% in size
Summary of the method: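 Cytotoxicity counter screen: CellTiter-Fluor added to compound-treated wild-type CHO-K1 cells at 16 h (37C, 5% CO2), fluorescence measured 1 h later; same wells as caspase-3/7 measurement.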

[17] = Caspase-3/7 induction in HepG2 cells by small molecules, qHTS cell viability counter screen (AID 1346981); conditions: CellTiter-Fluor fluorescence, 17 h, at 92.4 µM (top of the series); further: nearly all actives have a fitted effect of over 30% in size
Summary of the method: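 Viability determined by CellTiter-Fluor fluorescence in HepG2 wells also used for the luminescent Caspase-Glo 3/7 read. Compounds were present for 16 hr at 37 C, 5% CO2 before reagent addition.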

[18] = target: Cytochrome P450 1A2 (Homo sapiens) (UniProt P05177); experiment: Cytochrome P450 Family 1 Subfamily A Member 2 (CYP1A2) small molecule antagonists: luciferase reporter qHTS assay (AID 1671199); further: nearly all actives have a fitted effect of over 50% in size; further: potency means the concentration at half of the fitted maximal effect
On the % scale 0 is the no-effect control and ±100 the full control effect.

Cc1cccc([N+](=O)[O-])c1[N+](=O)[O-]
inactive: cAMP activity change [1] 0.912% [at 42.5 µM] | activity change, negative = inhibition ([2]; at 42.5 µM (top of the series)) 1.33% | activity change, negative = cytotoxicity ([3]; at 42.5 µM (top of the series)) 2.52% | activity change, negative = cytotoxicity [4] -10.2% [at 35.3 µM] | Potency [5] | activation ([6]; at 26.5 µM (top of the series)) 1.86% | caspase activation [7] 5.64% [at 42.5 µM] | Potency [8] | Potency [9] | Potency [10]

N#CBr
inactive: activity change, negative = cytotoxicity [11] -0.604% | activation [12] 0.0604% | cAMP activity change [1] 4.34% | activity change, negative = inhibition ([2]; at 92.4 µM (top of the series)) 2.75% | activity change, negative = cytotoxicity [13] -0.854% | Potency [14] | activity change, negative = cytotoxicity ([3]; at 92.4 µM (top of the series)) 13.8% | activity change, negative = cytotoxicity [4] -12.4% | Potency [5] | activation ([6]; at 57.6 µM (top of the series)) -0.131% | Potency [15] | caspase activation [7] -1.19% | Potency [16] | Potency [8] | activity change, negative = cytotoxicity [17] -2.44% | Potency [9] | Potency [10]

Cc1ccc([N+](=O)[O-])c([N+](=O)[O-])c1
inactive: activity change, negative = cytotoxicity [11] -3.28% | activation [12] -5.66% and -0.349% | cAMP activity change [1] -0.984% and -17.2% | activity change, negative = cytotoxicity [13] -9.73% | activity change, negative = cytotoxicity [4] -6.11% and -2.14% | Potency [15] | caspase activation [7] -3.09% and 0.131% | Potency [8] | activity change, negative = cytotoxicity [17] -4.49% | Potency [9] | Potency [10]
active: Potency [18] 28.9 µM and 28.3 µM
inactive and 15.1 µM (active): Potency [5]

CC(C)N(CCO)C(C)C
active: Potency [18] 35.6 µM
inactive: activity change, negative = cytotoxicity [11] -5.9% | cAMP activity change [1] 4.74% | activity change, negative = inhibition ([2]; at 92.4 µM (top of the series)) -0.168% | activity change, negative = cytotoxicity [13] 6.14% | Potency [14] | activity change, negative = cytotoxicity ([3]; at 92.4 µM (top of the series)) -4.33% | activity change, negative = cytotoxicity [4] 0.0749% | Potency [5] | activation ([6]; at 57.6 µM (top of the series)) -0.911% | Potency [15] | caspase activation [7] 1.11% | Potency [16] | Potency [8] | activity change, negative = cytotoxicity [17] 0.689% | Potency [9] | Potency [10]

CCN(CC)CCCl
inactive: activity change, negative = cytotoxicity [11] -15.6% | activation [12] -0.772% | cAMP activity change [1] -0.839% | activity change, negative = cytotoxicity [13] -15.3% | Potency [14] | activity change, negative = cytotoxicity ([3]; at 92.4 µM (top of the series)) -9.34% | activity change, negative = cytotoxicity [4] -2.09% | Potency [5] | activation ([6]; at 57.6 µM (top of the series)) 0.0832% | Potency [15] | caspase activation [7] -0.331% | Potency [16] | Potency [8] | activity change, negative = cytotoxicity [17] -1.23% | Potency [18] | Potency [9] | Potency [10]
